From patent publication US10617670B2, “Synergistic auristatin combinations” (priority 2014, dated 2020)

What was measured:
[1] = tested on: panel of 81 protein kinases and Class III PI3K family hVps34; assay: Kinase screening services (Dundee University and Invitrogen); type: biochemical; conditions: versus evaluated kinases
[2] = rat

With `COc1ccc(-c2cc3c(C)nc(N)nc3n([C@H]3CC[C@H](OCCO)CC3)c2=O)cn1` [Compound 1A, 2-amino-8-[trans-4-(2-hydroxyethoxy)cyclohexyl]-6-(6-methoxypyridin-3-yl)-4-methylpyrido[2,3-d]pyrimidin-7(8H)-one] the “selectivity for the PI3K family” value [1] was greater than 500 and the “oral bioavailability F(%)” value [2] was 56+/−16%.
